Measured values: patent US20250127937A1, “FAP INHIBITOR” (UNIVERSITÄT HEIDELBERG, priority 2018, published 2025)

Amino acid sequences for entries named in this document (tags omitted).
UniProt Q12884, whole entry: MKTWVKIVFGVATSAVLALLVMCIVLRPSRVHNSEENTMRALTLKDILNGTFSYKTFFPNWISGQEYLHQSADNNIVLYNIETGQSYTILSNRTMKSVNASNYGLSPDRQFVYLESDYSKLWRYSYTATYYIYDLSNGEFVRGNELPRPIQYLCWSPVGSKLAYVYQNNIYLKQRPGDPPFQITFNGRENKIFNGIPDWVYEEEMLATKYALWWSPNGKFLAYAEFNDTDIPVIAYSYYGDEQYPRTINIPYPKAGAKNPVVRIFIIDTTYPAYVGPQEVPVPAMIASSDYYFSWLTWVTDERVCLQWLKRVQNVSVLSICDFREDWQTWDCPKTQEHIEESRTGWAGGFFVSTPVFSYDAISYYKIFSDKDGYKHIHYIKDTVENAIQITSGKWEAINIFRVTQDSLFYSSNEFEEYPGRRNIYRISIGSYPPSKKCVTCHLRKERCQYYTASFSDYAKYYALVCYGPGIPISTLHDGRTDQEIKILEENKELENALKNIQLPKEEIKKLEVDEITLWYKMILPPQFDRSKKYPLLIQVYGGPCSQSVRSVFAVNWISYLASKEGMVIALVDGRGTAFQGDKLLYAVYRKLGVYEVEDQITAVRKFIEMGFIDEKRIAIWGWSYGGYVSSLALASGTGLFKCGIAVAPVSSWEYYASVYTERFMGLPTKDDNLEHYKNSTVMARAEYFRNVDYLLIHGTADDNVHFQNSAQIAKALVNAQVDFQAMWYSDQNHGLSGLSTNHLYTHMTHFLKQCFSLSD

Tests used:
[1] = test system: HT-1080-FAP tumor xenografts; experiment: Small-animal imaging (PET, scintigraphy) in HT-1080-FAP tumor bearing mice; conditions: F-18 labeled (nicotinamide or AlF-18 NOTA), up to 140 min after i.v.
human FAP-α = human FAP-α (Homo sapiens (Human), UniProt Q12884); experiment: Competitive binding of radiolabeled compound to HT-1080-FAP cells against unlabeled compound; conditions: F-18-FAPI derivatives; table title says EC50, head says IC50

SMILES | PET imaging findings [1] | IC50 (human FAP-α) [nM]
C[N+](C)(C)c1ccc(C(=O)N2CCN(CCCOc3ccc4nccc(C(=O)NCC(=O)N5CC(F)(F)C[C@H]5C#N)c4c3)CC2)cn1 | unfavorable accumulation in the liver | 5.4
CN(CCCN1CCN(C(=O)c2ccc([N+](C)(C)C)nc2)CC1)c1ccc2nccc(C(=O)NCC(=O)N3CC(F)(F)C[C@H]3C#N)c2c1 | unfavorable accumulation in the liver | 2.4
